Assay results from ChEMBL document CHEMBL1137924, “Carbonic anhydrase inhibitors. Inhibition of the beta-class enzyme from the methanoarchaeon Methanobacterium thermoautotrophicum (Cab) with anions” (Bioorg Med Chem Lett, 2004).
pKi: −log10 of the molar value.

What was measured:
[1] = biological target: T1, Carbonic anhydrase (Methanosarcina thermophila, UniProt P40881); type: functional
T1 sequence (P40881 whole entry): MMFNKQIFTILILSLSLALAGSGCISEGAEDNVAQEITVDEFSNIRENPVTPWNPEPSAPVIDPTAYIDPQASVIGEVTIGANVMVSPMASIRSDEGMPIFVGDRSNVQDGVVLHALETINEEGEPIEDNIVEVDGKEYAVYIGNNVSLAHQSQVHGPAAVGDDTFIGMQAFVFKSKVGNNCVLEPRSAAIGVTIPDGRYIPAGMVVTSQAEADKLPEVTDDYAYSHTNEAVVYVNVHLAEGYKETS

[2] = biological target: T2, Carbonic anhydrase (Methanobacterium thermoautotrophicum, UniProt Q50565); set-up: species or system Methanothermobacter thermautotrophicus str. Delta H
T2 sequence (Q50565 whole entry): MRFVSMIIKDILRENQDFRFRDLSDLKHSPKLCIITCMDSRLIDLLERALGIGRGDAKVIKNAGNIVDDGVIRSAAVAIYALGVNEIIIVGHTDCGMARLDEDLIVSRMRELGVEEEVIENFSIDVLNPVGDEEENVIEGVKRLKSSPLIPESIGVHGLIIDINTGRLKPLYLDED

Row | Compound | pKi [1] | pKi [2]
1 | F [FLUORIDE ION] | < 0.70 | –
2 | O=S(=O)(O)O [SULFURIC ACID] | – | 1.35
3 | N#CS [THIOCYANIC ACID] | – | 3.28
